Bioassay records from PubChem BioAssay.
Rango release inh – inhibitors of RanGTP-induced Rango-importin beta complex dissociation; 340,000 compounds, 0.071% hits; Potency, µM (top dose mostly 46.1 µM); O95149+P62826; Biochemical FRET Rango-importin beta, RanGTP-induced dissociation; AID 540253; also: nearly all actives have a fitted effect of over 45% in size
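Compounds preincubate 5 min with complex of recombinant Rango and importin beta in PBS with 1 mM DTT. Ran (0.6 uM) loaded with 2 mM GTP plus 0.2 uM RCC1 starts dissociation; FRET is recorded 45 min later.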
B2AR arrestin – agonists driving beta-arrestin recruitment to human beta2-adrenergic receptor; P07550; beta-arrestin recruitment to beta2AR, cell-based reporter; Potency, µM (series often up to 46.1 µM), actives largely listed as activators; AID 492947; 330,000 compounds, 0.02% hits; active = well fitted curve in the direction sought with a large enough effect; inconclusive = small, poorly fitted or top-dose-only effect, or another doubt; inactive = no such curve, though single readings can be large; an effect the other way counts as inactive or inconclusive; also: nearly all actives have a fitted effect of over 65% in size
CCT modulator – cytosolic chaperonin activity modulation; purified chaperonin ATPase assay, HTRF ADP detection, 30 min; activity change, % (concentration not given with the values), hits read low; 360,000 compounds, 0.3% hits; AID 651819; in the data active = activity change below about -30%
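TRiC (40 or 20 nM final, by batch activity) in 30 mM Tris pH 7.4, 100 mM KCl, 5 mM MgCl2, 1 mM DTT was treated with compound at 76 uM single dose, then 10 uM ATP, 30 min at 37 °C. ADP was read by HTRF Transcreener.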
Mm-Cpn inhibitor – inhibitors of Methanococcus maripaludis chaperonin TRiC (MmCpn); purified Mm-Cpn ATPase, ADP Transcreener TR-FRET; Potency, µM (doses to about 76.9 µM), usual class: inhibitors; 330,000 compounds, 0.031% hits; active = well fitted curve in the direction sought with a large enough effect; inconclusive = small, poorly fitted or top-dose-only effect, or another doubt; inactive = no such curve, though single readings can be large; an effect the other way counts as inactive or inconclusive; also: nearly all actives have a fitted effect of over 80% in size
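Compound-treated chaperonin, 25 nM final, turns over 10 uM ATP at 37°C for 30 min following a 10 min preincubation; ADP generated competes with ADP-d2 for Eu-cryptate antibody, lowering FRET.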
Rango-impB inh – inhibitors of Rango-importin beta complex formation; Rango CFP/YFP FRET sensor + importin beta, 45 min; 340,000 compounds, 0.031% hits; AID 540263; Q14974; Potency, µM (highest dose often 92.2 µM); also: nearly all actives have a fitted effect of over 15% in size
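FRET biosensor Rango (snurportin 1 IBB between N-terminal EYFP and C-terminal Cerulean), 50 nM in PBS/1 mM DTT/0.02% Tween-20/0.1% BSA, preincubated 5 min RT with compound; 0.125 microM importin beta added, 45 min RT, CFP/YFP FRET ratio read.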
A number is an active result; 0 = inactive; ? = inconclusive; - = not tested or not shown. Only some compounds are listed: those with a hit (about 0.43% of all), similar ones and a draw of the others. Unless noted, calls follow the shape of the full dose curve.

SMILES	Rango release inh	B2AR arrestin	CCT modulator	Mm-Cpn inhibitor	Rango-impB inh
Cc1ccccc1NC(=S)NNc1ncc(C(F)(F)F)cc1Cl	0	0	0	50µM	0
Cc1cccc(NC(=O)CN(C)C(=O)C2CCCC2)c1C	0	0	0	0	0
CC(C)(C)c1cc(=O)n(-c2ccccc2)[nH]1	0	0	0	?	46µM
O=c1cc(-c2ccccc2)[nH]n1-c1ccccc1	0	-	0	-	0
COc1ccc(C2C=C(c3ccc(F)cc3)NC(=S)N2)cc1OC (centres undefined)	0	0	0	0	0
CCNc1nn2ccccc2c1/C=C(\C#N)C(=O)OCC	10µM	0	0	0	?
CCOC(=O)/C(C#N)=C/c1c(N2CCCCCC2)nc2ccccn2c1=O	0	0	0	0	0
Cc1cc2c(s1)c1c(C)nn(Cc3ccccc3F)c(=O)c1n2C	-	0	-	0	-
CN(C(=O)C1Cc2c(-c3ccc(Cl)cc3)ccnc2O1)c1ccccc1 (centres undefined)	-	-	0	-	-
COC(=O)C1=CN(Cc2ccc(F)cc2)C=C(C(=O)OC)C1c1cc(OC)c(OC)c(OC)c1	?	0	0	0	?
COC(=O)C1=CN(Cc2ccc(OC)c(OC)c2)C=C(C(=O)OC)C1c1cccc(F)c1	5.8µM	0	0	0	?
COc1ccccc1Nc1nc(N)nc(CN2CCN(c3ccccc3F)CC2)n1	0	0	0	0	0
COc1ccccc1N1CCN(Cc2nc(N)nc(Nc3ccc(C)c(Cl)c3)n2)CC1	0	0	-34	0	0
COc1cccc(C(=O)NCC(=O)OCc2ccc(F)cc2Cl)c1	0	0	0	0	0
Cn1c(SCC(=O)N/N=C/C=C/c2ccco2)nc2ccccc21	0	18µM	0	0	0
Cc1cc(Cl)ccc1OCC(=O)NNC(=O)c1ccco1	0	0	-39	0	0
Oc1ccc(NCc2cccs2)cc1	0	13µM	0	0	0
C#CCOCCOCCOCCNc1nc(N2CCN(C(=O)[C@H](CCCN=C(N)N)n3cc(C(N)[C@@H](C)CC)nn3)CC2)nc(N2CCN(C(=O)[C@H](CCCCN)n3cc([C@@H](N)[C@H](C)CC)nn3)CC2)n1 (some centres undefined)	0	0	0	0	58µM
C#CCOCCOCCOCCNc1nc(N2CCN(C(=O)[C@H](CCCN=C(N)N)n3cc(C(N)[C@@H](C)CC)nn3)CC2)nc(N2CCN(C(=O)[C@H](CCC(=O)O)n3cc([C@@H](N)CCCCN)nn3)CC2)n1 (some centres undefined)	0	0	0	0	?
C#CCOCCOCCOCCNc1nc(N2CCN(C(=O)CCCCCCCCCCNC(=O)[C@H]([C@@H](C)CC)n3cc(CCCCN=C(N)N)nn3)CC2)nc(N2CCN(C(=O)CCCCCCCCCCNC(=O)[C@H](CCCCN)n3cc(C)nn3)CC2)n1	0	0	0	0	65µM
C#CCOCCOCCOCCNc1nc(N2CCN(C(=O)CCCCCCCCCCNC(=O)[C@@H](CCC(=O)O)n3cc(CCCCCN)nn3)CC2)nc(N2CCN(C(=O)CCCCCCCCCCNC(=O)[C@H]([C@@H](C)CC)n3cc(CCCCCN)nn3)CC2)n1	0	0	0	45µM	0
C=CCn1c(C2CCCCC2)n[nH]c1=S	0	0	0	0	0
CCOC(=O)C1=NN(C(C)=O)C2(CC(=O)N(c3cccc(C)c3)C2=O)C1 (centres undefined)	0	0	0	0	0
NC(=O)NCCc1ccccc1	0	0	0	0	0
Cn1c2cc(B(O)O)sc2c2cnn(Cc3ccc(F)cc3F)c(=O)c21	-	0	-	0	-
SMILES	Rango release inh	B2AR arrestin	CCT modulator	Mm-Cpn inhibitor	Rango-impB inh
COc1ccc(N2CCCC2)c(NC(=O)c2ccc(Br)o2)c1	0	0	0	0	0
CC1CC(C)CN(C(=O)CCNC(=O)c2ccccc2Cl)C1 (centres undefined)	0	0	0	0	0
NC(=O)c1c(NC(=O)C(=O)N2CCOCC2)sc2c1CCCC2	0	0	0	0	0
COc1cccc(/C=C2/CN(C)CC3=C2OC(N)=C(C#N)C3c2cccc(OC)c2)c1 (centres undefined)	21µM	0	0	0	?
COc1cccc(C2C(C#N)=C(N)OC(C(C)(C)C)=C2C#N)c1 (centres undefined)	0	0	0	0	0
CCCCOc1ccc(/C=C/C(=O)N(CC)CC(=O)Nc2ccc3c(c2)OCCO3)cc1OC	0	0	0	0	0
